Sequences of proteins named here, by UniProt entry; tags and fusion partners are left off.
UniProt P04049, whole entry Y340E/Y341E: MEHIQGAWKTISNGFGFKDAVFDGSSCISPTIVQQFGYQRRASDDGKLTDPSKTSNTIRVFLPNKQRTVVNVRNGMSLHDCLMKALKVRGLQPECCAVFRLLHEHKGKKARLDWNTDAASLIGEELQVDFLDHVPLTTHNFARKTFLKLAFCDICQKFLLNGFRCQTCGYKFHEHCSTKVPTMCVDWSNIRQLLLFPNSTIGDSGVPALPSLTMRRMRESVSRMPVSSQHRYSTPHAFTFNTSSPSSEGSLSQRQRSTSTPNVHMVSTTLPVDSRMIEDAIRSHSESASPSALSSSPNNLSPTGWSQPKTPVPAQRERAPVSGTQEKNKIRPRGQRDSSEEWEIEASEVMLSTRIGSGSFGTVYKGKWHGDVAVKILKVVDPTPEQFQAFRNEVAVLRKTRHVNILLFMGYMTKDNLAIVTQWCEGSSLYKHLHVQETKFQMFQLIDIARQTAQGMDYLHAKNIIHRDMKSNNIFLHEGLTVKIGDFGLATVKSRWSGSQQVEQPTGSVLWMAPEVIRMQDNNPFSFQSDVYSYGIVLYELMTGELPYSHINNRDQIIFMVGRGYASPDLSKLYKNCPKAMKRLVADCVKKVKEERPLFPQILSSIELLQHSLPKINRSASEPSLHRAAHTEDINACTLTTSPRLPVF

The first test deals with C-Raf FL (full-length C-Raf protein, Y340E and Y341E activating mutations) (Homo sapiens (Human), UniProt P04049, Y340E/Y341E). The class given is biochemical. To be noted: AlphaScreen, 60 min pre-incubation, 1 hour reaction; read-out: c-Raf FL IC-50. In general terms: In Alpha technology, singlet oxygen from a donor bead excites a nearby acceptor bead.
Regarding `CCn1c(N2CCOCC2)cc(-c2cc(NC(=O)c3ccnc(C(C)C)c3)ccc2C)cc1=O` [Example 522, N-(3-(1-ethyl-6-morpholino-2-oxo-1,2-dihydropyridin-4-yl)-4-methylphenyl)-2-isopropylisonicotinamide], the IC50 was determined as 0.6 nM. As for `CCn1cc(C(=O)Nc2ccc(C)c(-c3cc(N4CCOCC4)n(C)c(=O)c3)c2)cc(C(F)(F)F)c1=O` [Example 481, 1-ethyl-N-(4-methyl-3-(1-methyl-6-morpholino-2-oxo-1,2-dihydropyridin-4-yl)phenyl)-6-oxo-5-(trifluoromethyl)-1,6-dihydropyridine-3-carboxamide], the IC50 was 0.3 nM. For the compound `Cc1nc(-c2cccc(NC(=O)c3ccc(C)c(-c4cc(N5CCOCC5)c(=O)n(C)c4)c3)c2)no1` [Example 438, 4-methyl-N-(3-(5-methyl-1,2,4-oxadiazol-3-yl)phenyl)-3-(1-methyl-5-morpholino-6-oxo-1,6-dihydropyridin-3-yl)benzamide], the IC50 was determined as 5.7 nM. As to `Cc1ccc(NC(=O)c2cccc(C(F)(F)F)c2)cc1-c1nc2c(c(N3CCOCC3)n1)CCNC2` [Example 834, N-(4-methyl-3-(4-morpholino-5,6,7,8-tetrahydropyrido[3,4-d]pyrimidin-2-yl)phenyl)-3-(trifluoromethyl)benzamide], the IC50 is 0.2 nM.

Take `COc1nnc(-c2cc(NC(=O)c3cccc(C(F)F)c3)cnc2C)cc1N1CCOCC1` [Example 604, 3-(difluoromethyl)-N-(5-(6-methoxy-5-morpholinopyridazin-3-yl)-6-methylpyridin-3-yl)benzamide]: the IC50 was found to be 0.6 nM. As for `Cc1ccc(NC(=O)c2cnnc(C(C)(C)C#N)c2)cc1-c1cc(N2CCOCC2)nc(NCCO)n1` [Example 737, 6-(2-cyanopropan-2-yl)-N-(3-(2-((2-hydroxyethyl)amino)-6-morpholinopyrimidin-4-yl)-4-methylphenyl)pyridazine-4-carboxamide], the IC50 is 5.4 nM. On the same count and under the same terms, the value for `Cc1ncc(NC(=O)c2ccnc(C(C)(C)C#N)c2)cc1-c1cncc(N2CCOCC2)n1` [Example 532, 2-(2-cyanopropan-2-yl)-N-(6-methyl-5-(6-morpholinopyrazin-2-yl)pyridin-3-yl)isonicotinamide] was 1.2 nM. As to `Cc1ncc(NC(=O)c2cccc(C(F)(F)F)c2)cc1-c1cc(N2CCOCC2)nc(N[C@H](C)CO)n1` [Example 748, (R)—N-(5-(2-((1-hydroxypropan-2-yl)amino)-6-morpholinopyrimidin-4-yl)-6-methylpyridin-3-yl)-3-(trifluoromethyl)benzamide], the IC50 is 0.4 nM.

Still in this test, the particulars now being: AlphaScreen, 60 min pre-incubation, reaction 1 hour at room temperature; read-out: c-Raf FL IC-50.
With `Cc1ccc(NC(=O)c2ccnc(C(C)(C)C#N)c2)cc1-c1nc2c(c(N3CCOCC3)n1)CNC2` [Example 866, 2-(2-cyanopropan-2-yl)-N-(4-methyl-3-(4-morpholino-6,7-dihydro-5H-pyrrolo[3,4-d]pyrimidin-2-yl)phenyl)isonicotinamide], the IC50 came to 2 nM. With `Cc1ccc(NC(=O)c2cncc(C(F)(F)F)c2)cc1-c1cnc(OC(C)C)c(N2CCOCC2)c1` [Example 951, N-(3-(6-isopropoxy-5-morpholinopyridin-3-yl)-4-methylphenyl)-5-(trifluoromethyl)nicotinamide], the IC50 turned out to be 0.11 nM.

The test is the same for the next values; noted with them: Table 2; AlphaScreen, 1 hour reaction; read-out: c-Raf FL IC-50.
Turning to `CCN1CCN(c2cc(C(=O)Nc3ccc(C)c(-c4cc(N5CCOCC5)c(=O)n(C)c4)c3)cc(C(F)(F)F)c2)CC1` [Example 174, 3-(4-ethylpiperazin-1-yl)-N-(4-methyl-3-(1-methyl-5-morpholino-6-oxo-1,6-dihydropyridin-3-yl)phenyl)-5-(trifluoromethyl)benzamide], the IC50 was 1.5 nM. As for `Cc1ncc(NC(=O)c2cccc(C(F)(F)F)c2)cc1-c1cnc(O[C@H]2CC[C@@H](O)CC2)c(N2CCOCC2)c1` [Example 317, N-(6′-(((1s,4s)-4-hydroxycyclohexyl)oxy)-2-methyl-5′-morpholino-[3,3′-bipyridin]-5-yl)-3-(trifluoromethyl)benzamide], the IC50 was 0.5 nM.
